The values that follow are results of earlier work, collected in paper PMC5412686 (Biopharmaceutics & Drug Disposition, 2017).

The conditions of the data set: Humans, oral bioavailability; ref Supplemental Table S2; cited from earlier work.

For `CCOC(=O)c1ncn2c1CN(C)C(=O)c1cc(F)ccc1-2` [Flumazenil], the F is given as 0.22.
